Assay results reported in paper PMC10951269 (2024).
Where two headings read alike, the source gives them in different places.

Key:
hSERT mutant I172M [1] = settings: radiotracer assay; 10 µM [3H]5-HT; N = 3
hSERT mutant I172M [2] = settings: fluorescence assay; 10 µM 5-HT; N = 3
hSERT I172M = settings: cited from earlier work

Fc1ccc([C@@H]2CCNC[C@H]2COc2ccc3c(c2)OCO3)cc1 [paroxetine]
fold decrease in potency, hSERT I172M compared to wild type (IC50 ratio) (hSERT mutant I172M [1]): 2.6 fold
fold decrease in potency, hSERT I172M compared to wild type (IC50 ratio) (hSERT mutant I172M [2]): 1.6 fold
fold decrease in potency, hSERT I172M compared to wild type (hSERT I172M; ref Davis et al. 36): 2.3 fold
fold decrease in potency, hSERT I172M compared to wild type (hSERT I172M; ref Henry et al. 34): 2.1 fold
